Our source for the melanin production values is patent US20050202001A1 (priority 2002, published 2005).

In one assay the test system is UACC-257 melanoma cells. Description: Melanin content (A405/A280) in UACC-257 melanoma cells. Particulars: UACC-257, agent alone, 72 hours after treatment; toxins 0.1 μg/ml each, PD98059 20 μM, IBMX 200 μM (FIG. 2A). Type of assay: cell-based, human.
Another assay has as its system MALME-3M melanoma cells. Description: Melanin content (A405/A280) in MALME-3M melanoma cells. Type of assay: cell-based, human. The note with it: agent alone, 72 hours after treatment, toxins 0.1 μg/ml each, PD98059 20 μM, IBMX 200 μM (FIG. 2B).

For the compound `CC(C)CCc1nc2[nH]c(=O)[nH]c(=O)c2[nH]1`, the melanin production entry with UACC-257 melanoma cells and in the assay on MALME-3M melanoma cells was “did not stimulate de novo melanin production” throughout.
